# scFv variants of Ab-95 (light chain) against a SARS-CoV-2 spike peptide

Data: MIT Lincoln Laboratory AlphaSeq set, Engelhart et al. 2022, doi:10.1038/s41597-022-01779-4, as distributed in FLAb.

All variants were tested on one target, the spike HR2 peptide PDVDLGDISGINAS (SARS-CoV-2).

Each scFv is VH, a (GGGGS)3 linker, VL, as in the parent Ab-95, and differs from it in the CDRs of the light chain only.
VH: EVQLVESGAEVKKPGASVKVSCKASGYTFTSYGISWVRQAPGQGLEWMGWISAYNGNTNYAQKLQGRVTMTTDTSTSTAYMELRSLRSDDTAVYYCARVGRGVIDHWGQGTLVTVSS
VL: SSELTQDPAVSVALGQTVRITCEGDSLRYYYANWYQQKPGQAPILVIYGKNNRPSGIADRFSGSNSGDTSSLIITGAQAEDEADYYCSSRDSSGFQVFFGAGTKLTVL

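Phage display of a naive human antibody library on the peptide gave the parent. Variants in AAYL52 differ from the parent at up to three CDR positions; double and triple changes were sampled at random. The scFvs were displayed on barcoded MATa yeast, the peptide on MATalpha yeast. Binding brings cells together so that they mate, and sequencing counts the barcode pairs among the diploids. A regression on co-assayed BCL2-family reference pairs converts the normalised counts of each replicate to an apparent Kd. The assay was run in three technical replicates.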

Substitutions are numbered in sequence along the VL above, starting at 1 (not Kabat). All variants listed here change G24 of the VL, counted from its first residue. Kd is apparent (estimated from mating counts) and averaged on the log scale over replicates with a signal. Smaller is tighter. An entry "nd" has no value in the source: the pair was not observed among the diploids in any replicate. This suggests poor binding but is not conclusive. Background: pairings of library AAYL52 with three empty control strains gave a value in 28% of cases (median 8.2 µM, 5th percentile 800 nM). Values in that range, when seen in few replicates, are hard to tell from nonspecific mating. For reference, the parent read 200 nM as the reference entry and 180 nM as a member of this library.

For G24K S89Q, the assay gave 4.7 µM (1 of 3 replicates). With G24N S26R S55H the result was 14 µM (2 of 3 replicates). With G24N R28N G49K the result was nd (0 of 3 replicates). For G24C S55R, the assay gave 830 nM (3 of 3 replicates). Variant G24I G49W G94W showed 62 µM (2 of 3 replicates). For E23M G24P F95W, the assay gave nd (0 of 3 replicates).

With G24F Y29H F95I the result was 1.7 µM (3 of 3 replicates). For G24W S93P, the assay gave 42 µM (2 of 3 replicates). Variant G24I D25R S26E gave 6.3 µM (2 of 3 replicates). Variant G24V N51E S93N gave 540 nM (3 of 3 replicates). For E23H G24D Y29N, the assay gave 200 nM (3 of 3 replicates). Variant G24C A32Y N33R showed nd (0 of 3 replicates).

For G24Q D25M Y30V, the assay gave 2.4 µM (1 of 3 replicates). Variant G24V L27A G94Q showed 9.1 µM (3 of 3 replicates). For E23V G24P R53D, the assay gave 7.3 µM (1 of 3 replicates). Variant E23S G24K S88V gave 5.4 µM (3 of 3 replicates). For G24P S26D G94P, the assay gave nd (0 of 3 replicates). Variant G24P Y29A P54N gave 27 µM (2 of 3 replicates).

Variant G24E S55G Q96G showed 27 µM (2 of 3 replicates). Variant G24E G49N S88D showed nd (0 of 3 replicates). Variant G24K A32L N52G showed nd (0 of 3 replicates). Variant G24E F95W gave 590 nM (3 of 3 replicates). Variant G24I Y29E R53S showed 180 µM (1 of 3 replicates). For G24L S93T, the assay gave 3.0 µM (2 of 3 replicates).

For G24W S92E F95Y, the assay gave 26 nM (3 of 3 replicates). Variant G24W A32R R53H gave 3.0 µM (1 of 3 replicates). With G24C S26R the result was 760 nM (3 of 3 replicates). Variant G24E D25C S93L gave 23 µM (2 of 3 replicates). With G24S D91S V97C the result was 880 nM (3 of 3 replicates). For G24D P54G Q96D, the assay gave 2.4 µM (3 of 3 replicates).

With G24N N51V the result was 86 µM (1 of 3 replicates). With G24V D25S S89V the result was 290 nM (3 of 3 replicates). Variant G24E R53F S93D gave nd (0 of 3 replicates). With G24S N51K D91R the result was 27 µM (1 of 3 replicates). For G24D D25H Y31V, the assay gave 5.5 µM (1 of 3 replicates). For G24V S26R Y29T, the assay gave 130 nM (3 of 3 replicates).

For G24I S26V R28D, the assay gave 12 µM (2 of 3 replicates). Variant G24V D25S A32R showed nd (0 of 3 replicates). With G24Y K50N S92F the result was 970 nM (2 of 3 replicates). Variant G24S S88C F98M gave 6.5 µM (3 of 3 replicates).

Top 5 of the variants detected in all replicates, tightest first:

| changes | apparent Kd | detected |
|---|---|---|
| G24W S92E F95Y | 26 nM | 3 of 3 |
| G24V S26R Y29T | 130 nM | 3 of 3 |
| E23H G24D Y29N | 200 nM | 3 of 3 |
| G24V D25S S89V | 290 nM | 3 of 3 |
| G24V N51E S93N | 540 nM | 3 of 3 |